# AlphaSeq binding of Ab-91 heavy chain variants to a spike HR2 peptide

Data: MIT Lincoln Laboratory AlphaSeq set, Engelhart et al. 2022, doi:10.1038/s41597-022-01779-4, as distributed in FLAb.

Antigen: PDVDLGDISGINAS, a 14-residue peptide of the SARS-CoV-2 spike HR2 region.

Parent: Ab-91, a human scFv built as VL, a 15-residue (Gly4Ser)3 linker, VH. Only the CDRs of the heavy chain vary.
VL: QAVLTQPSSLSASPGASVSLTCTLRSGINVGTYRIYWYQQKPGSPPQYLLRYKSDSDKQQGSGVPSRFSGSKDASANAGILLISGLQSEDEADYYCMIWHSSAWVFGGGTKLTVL
VH: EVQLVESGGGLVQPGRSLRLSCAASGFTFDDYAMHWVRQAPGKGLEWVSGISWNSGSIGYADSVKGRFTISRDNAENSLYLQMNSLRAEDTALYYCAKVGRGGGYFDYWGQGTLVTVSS

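Phage display of a naive human antibody library on the peptide gave the parent. Variants in AAYL51 differ from the parent at up to three CDR positions; double and triple changes were sampled at random. Affinity was read by AlphaSeq, a pooled yeast mating assay with surface-displayed partners. The frequency of each diploid, read from paired DNA barcodes, reflects how well the two displayed proteins bind. Scores were corrected for input abundance and mapped to Kd with protein pairs of known affinity run in the same pool. Mating was done three times.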

Positions count from residue 1 of the parent VH; Y32T puts T in place of Y. Affinities are written as log10 Kd with Kd in nM; a lower number is a better binder. A mean of the replicates is given; it leaves out those without a signal. A pair that was not seen in any replicate is written "not detected"; this usually means weak binding, but a binder can also be missed. Parent in this assay: reference entry 1.86, copy in this library 0.88. Nonspecific signal, from three strains lacking the peptide, appeared in 21% of pairings of library AAYL51, centred on 4.54 (5% of these signals below 3.26); values are not corrected for it.

| changes | mean, log10 nM | replicates with signal |
|---|---|---|
| Y32T/S52H/K65Q | not detected | 0 of 3 |
| G56T/G103W | 5.77 | 1 of 3 |
| A33M/W53R/V99R | 4.28 | 2 of 3 |
| F27S/D31H/H35C | 6.17 | 2 of 3 |
| G56W/Y105F/Y108C | 1.80 | 3 of 3 |
| H35T/I51L/D107S | 4.91 | 2 of 3 |
| F27N/S57K/G104N | 5.10 | 1 of 3 |
| Y32N/S52W/G59I | 4.64 | 1 of 3 |
| G26Y/D31I/G59T | not detected | 0 of 3 |
| N54W/G59H/Y105E | 5.30 | 2 of 3 |
| D30F/S57C | 4.41 | 3 of 3 |
| S52Y/S57H/Y60N | not detected | 0 of 3 |
| D30H/D31K/D107R | not detected | 0 of 3 |
| T28S/D62S/D107Q | 5.15 | 1 of 3 |
| T28A/G56N/Y108N | not detected | 0 of 3 |
| S57G/G59Y/G104E | not detected | 0 of 3 |
| G50K/S63Y/Y108N | not detected | 0 of 3 |
| F27Y/W53F/G59A | not detected | 0 of 3 |
| H35R/S52G/S55K | not detected | 0 of 3 |
| D30T/I51L | 2.42 | 3 of 3 |
| G56L/S63N/Y105I | 2.50 | 3 of 3 |
| Y32Q/S55L/R101W | 5.30 | 1 of 3 |
| D30L/G59Y/V99K | 4.95 | 1 of 3 |
| Y32C/S55T | 5.70 | 3 of 3 |
| D30T/S52V/I58F | not detected | 0 of 3 |
| H35M/G103C/D107T | not detected | 0 of 3 |
| G50T/G56R/S57P | 4.70 | 2 of 3 |
| M34I/S52Q/G104D | not detected | 0 of 3 |

Continued, with the values leading:

| mean, log10 nM | replicates with signal | changes |
|---|---|---|
| 4.09 | 1 of 3 | F27K/A61F/K65L |
| not detected | 0 of 3 | G26M/Y60W/V64H |
| 4.35 | 2 of 3 | W53P/F106V/Y108L |
| 3.46 | 1 of 3 | I51L/W53E/Y105C |
| not detected | 0 of 3 | F29A/G103F/Y105E |
| 4.17 | 1 of 3 | G103I/Y105P/Y108T |
| not detected | 0 of 3 | D30S/M34C/Y105M |
| 5.09 | 3 of 3 | A61V/V64M/G104S |
| 2.89 | 2 of 3 | A33S/R101F |
| 5.10 | 1 of 3 | Y60T/K65Q/D107Y |
| 3.47 | 3 of 3 | W53F/K65C/R101F |
| 0.65 | 3 of 3 | D31L/Y105M/F106Q |
| not detected | 0 of 3 | A33F/Y105G/F106K |
| not detected | 0 of 3 | F29M/M34N/S52P |
| 3.80 | 1 of 3 | S52R/S55Q/S57K |
| 5.79 | 3 of 3 | F29H/A33L/F106P |
| not detected | 0 of 3 | F29L/S52H/G102L |
| 4.43 | 3 of 3 | H35S/G102D |
| not detected | 0 of 3 | H35D/D62L/G100Y |
| 5.98 | 2 of 3 | A33Q/Y60E/Y105G |
| 5.25 | 2 of 3 | G26W/D30L/H35E |
| 5.32 | 2 of 3 | A33C/S57E/Y60K |
| not detected | 0 of 3 | M34P/H35T/Y60G |
| not detected | 0 of 3 | V64P/G103Q |
| 3.97 | 1 of 3 | F27H/Y60V/V64R |
| not detected | 0 of 3 | S63Y/Y105N |
| not detected | 0 of 3 | S52I/G104R |
| not detected | 0 of 3 | F29T/H35W/A61R |
| 4.45 | 2 of 3 | W53K/I58G |